Measured values reported in PubChem BioAssay AID777 (Sanford-Burnham Center for Chemical Genomics, 2007).
The list shows a part of the results, in another mix than the full data. The source made the active and inactive calls.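 How the source made its calls: active means blocking of liver enzyme CYP2C9 beyond about 50% at 5 µM (limit read from the data); inactive means the rest.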

Protein sequences, listed by entry. Tags and fused reporters are not part of them.
UniProt P11712, whole entry: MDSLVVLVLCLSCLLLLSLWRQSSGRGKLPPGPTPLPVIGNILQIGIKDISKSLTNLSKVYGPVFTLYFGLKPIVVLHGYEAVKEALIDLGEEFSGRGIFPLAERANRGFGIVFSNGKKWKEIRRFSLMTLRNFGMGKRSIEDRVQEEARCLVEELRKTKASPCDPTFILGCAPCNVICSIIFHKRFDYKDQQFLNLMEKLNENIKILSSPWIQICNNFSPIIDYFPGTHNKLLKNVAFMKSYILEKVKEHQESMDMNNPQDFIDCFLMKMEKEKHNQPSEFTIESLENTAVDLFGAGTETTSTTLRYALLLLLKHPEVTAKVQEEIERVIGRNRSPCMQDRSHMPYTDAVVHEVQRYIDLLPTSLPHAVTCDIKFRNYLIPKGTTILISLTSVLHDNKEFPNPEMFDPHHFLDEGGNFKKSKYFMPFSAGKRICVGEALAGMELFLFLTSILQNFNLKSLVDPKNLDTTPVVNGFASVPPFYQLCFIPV

Each compound was assayed against Cytochrome P450 2C9 (Homo sapiens) (UniProt P11712) (assay: blockers of cytochrome P450 2C9 activity – biochemical, luminescence, ADME assay, primary screen (AID 777)). Conditions: CYP2C9 Supersomes, luciferin-H conversion, at 5 µM, stronger effect = higher value.

Q: With `N#CC1(Nc2ccccc2)CCN(CCc2ccccc2)CC1` as the compound, how does the inhibition read?
A: inactive: -3.5%

Q: `O=C(NCC1(N2CCOCC2)CCCCC1)c1cc(=O)[nH]c2ccccc12` was tested. Which inhibition did it give?
A: inactive: 2.6%

Q: For `O=C(OC1CN2CCC1CC2)C1c2ccccc2Oc2ccccc21` (stereo not given), which inhibition is on record?
A: inactive: 4.7%

Q: With `O=C(NCC1(N2CCOCC2)CCCCC1)c1cc2ccccc2o1` as the compound, how does the inhibition read?
A: inactive: 28.2%

Q: Which inhibition does the source give for `COc1ccc(NC2CCN(CCc3ccccc3)CC2)c(OC)c1` here?
A: inactive: 8.2%

Q: `Fc1ccccc1NC1CCN(Cc2ccccc2)CC1` was tested. Which inhibition did it give?
A: inactive: 13%

Q: Which inhibition does the source give for `CCOc1ncccc1C(=O)NCC1(N2CCOCC2)CCCCC1` here?
A: active: 52.3%

Q: `CCC(CO)(C(=O)OC1CN2CCC1CC2)c1ccccc1` (stereo not given) was tested. Which inhibition did it give?
A: inactive: -24%

Q: `N/C(=N\O)c1c(N)no[n+]1[O-]` was tested. Which inhibition did it give?
A: inactive: 8.1%

Q: With `c1ccc(CN2CCC(Nc3ccccc3)CC2)cc1` as the compound, how does the inhibition read?
A: active: 50.5%
